In assay [1] the target is Cannabinoid receptor 2 (Homo sapiens, UniProt P34972). Briefly: Inverse agonist activity at N-terminal HA-tagged human CB2 receptor expressed in HEK293 cells transfected with YFP-Epac-RLuc assessed as increase in forskolin-stimulated cAMP level at 10 uM by BRET assay. The format is functional, cell-based. In outline: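 Single-concentration screen at 10 µM in CB receptor-expressing HEK293 cells, run with and without CP55,940 as reference agonist. Forskolin-stimulated cAMP read by BRET biosensor. A fall in cAMP is scored as agonism and a rise as inverse agonism.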
For orientation: Cyclic AMP is a second messenger, typically raised through Gs and lowered through Gi signalling.

Protein sequences, listed by entry. Tags and fused reporters are not part of them.
UniProt P34972, whole entry: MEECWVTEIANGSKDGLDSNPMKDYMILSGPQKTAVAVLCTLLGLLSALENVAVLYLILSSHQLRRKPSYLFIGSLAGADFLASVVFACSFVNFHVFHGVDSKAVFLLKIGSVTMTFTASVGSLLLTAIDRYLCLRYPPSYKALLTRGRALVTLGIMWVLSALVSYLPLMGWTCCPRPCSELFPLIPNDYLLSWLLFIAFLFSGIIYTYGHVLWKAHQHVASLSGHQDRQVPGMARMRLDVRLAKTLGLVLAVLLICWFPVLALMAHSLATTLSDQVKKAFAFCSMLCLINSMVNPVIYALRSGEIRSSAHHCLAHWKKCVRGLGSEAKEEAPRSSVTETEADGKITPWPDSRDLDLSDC
UniProt P21554, whole entry: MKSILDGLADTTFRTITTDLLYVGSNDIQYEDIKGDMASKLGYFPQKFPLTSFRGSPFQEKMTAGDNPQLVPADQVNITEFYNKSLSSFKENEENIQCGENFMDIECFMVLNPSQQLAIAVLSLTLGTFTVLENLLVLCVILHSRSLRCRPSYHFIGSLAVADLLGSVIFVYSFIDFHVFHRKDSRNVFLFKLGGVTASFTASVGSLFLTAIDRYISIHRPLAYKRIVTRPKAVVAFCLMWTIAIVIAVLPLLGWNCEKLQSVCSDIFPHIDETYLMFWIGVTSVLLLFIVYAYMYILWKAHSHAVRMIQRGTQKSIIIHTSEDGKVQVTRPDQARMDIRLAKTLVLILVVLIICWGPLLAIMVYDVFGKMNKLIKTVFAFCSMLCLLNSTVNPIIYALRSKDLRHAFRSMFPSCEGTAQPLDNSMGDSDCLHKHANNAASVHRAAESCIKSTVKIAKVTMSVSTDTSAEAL

Assay [2] concerns the target T1, Cannabinoid receptor 1 (Homo sapiens, UniProt P21554).
The target in assay [3] is T1, Cannabinoid receptor 1. Briefly: Displacement of [3H]CP55,940 from N-terminal HA-tagged human CB1 receptor expressed in HEK293 cell membranes after 1 hr by microbeta scintillation counting method. (In general: Displacement assays read how much labelled ligand stays bound in the presence of the test substance.)

Activity calls are given as the source filed them. The rule behind the calls is not given here.

As for `Cc1ccc(Cn2nc(C(=O)N[C@@H]3C(C)(C)[C@@H]4CC[C@@]3(C)C4)cc2-c2ccc(Cl)c(C)c2)cc1`, the result in assay [1] was Active. Moreover, the Ki (as a rule, a dissociation constant, usually derived from enzyme kinetics or from competition with a known ligand) was determined as 1.7 µM in assay [2] and 5.63 µM in assay [3].

(Values after ChEMBL document CHEMBL4251662, “Alkyl indole-based cannabinoid type 2 receptor tools: Exploration of linker and fluorophore attachment” (Eur J Med Chem, 2018).)
